Measurements: patent US20100056627A1, “PHARMACEUTICAL COMPOSITIONS OF ALKYL GALLATES” (priority 2006, published 2010)

What was measured:
[1] = tested on: influenza virus A/Aichi (H3N2); assay: Virucidal activity against influenza virus A/Aichi (H3N2) (Table 16); conditions: presence of 30 mg/L of J1816
[2] = tested on: clinical isolates MRSA and MSSA; assay: MIC of octyl gallate against clinical isolates MRSA and MSSA, agar plate dilution; conditions: with isoamyl gallate (Table 7)

CCCCCCCCOC(=O)c1cc(O)c(O)c(O)c1 [octyl gallate]
octyl gallate concentration at which influenza virus completely lost the infectivity to cells [1]: 10 mg/L
antimicrobial action of octyl gallate against clinical isolates MRSA and MSSA [2]: reinforced
